# Measured values as given in PMC7906907, “Targeting STAT3 by a small molecule suppresses pancreatic cancer progression” (Oncogene, 2021).
# By UniProt entry, the sequences of proteins in these tests, tags left out. Residues count along the entry.
# UniProt P40763, 127-722 limits assumed: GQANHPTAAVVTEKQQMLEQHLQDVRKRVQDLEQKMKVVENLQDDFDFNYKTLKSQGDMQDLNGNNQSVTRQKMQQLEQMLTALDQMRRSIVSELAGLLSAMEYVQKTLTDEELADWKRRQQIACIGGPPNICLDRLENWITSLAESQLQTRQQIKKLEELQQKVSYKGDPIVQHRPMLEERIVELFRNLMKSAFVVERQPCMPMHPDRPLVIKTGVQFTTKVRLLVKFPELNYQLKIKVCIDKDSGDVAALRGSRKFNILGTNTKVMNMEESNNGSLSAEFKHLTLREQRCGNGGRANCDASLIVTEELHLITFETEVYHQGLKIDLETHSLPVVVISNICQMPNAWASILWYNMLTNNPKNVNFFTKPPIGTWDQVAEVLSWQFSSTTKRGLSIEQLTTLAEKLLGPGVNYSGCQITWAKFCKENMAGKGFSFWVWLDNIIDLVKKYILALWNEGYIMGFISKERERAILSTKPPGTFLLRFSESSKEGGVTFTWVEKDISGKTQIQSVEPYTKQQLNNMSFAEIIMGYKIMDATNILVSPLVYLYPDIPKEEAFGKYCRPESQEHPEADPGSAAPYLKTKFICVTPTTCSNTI
# Target: His-STAT3^127-722 protein (Homo sapiens, UniProt P40763)
# Experiment: Fluorescence polarization (FP) assay, STAT3-phosphopeptide interaction
# Type: binding
# Conditions: read-out: FP assay (IC50 μM); Supplementary Table 1; inhibition of STAT3 dimerization in FP assay
row,Structure (SMILES),IC50 [µM]
1,COc1cc2c(cc1C(=O)N(C)c1ncc([N+](=O)[O-])s1)CCC1C(C)(C)C(=O)C(C#N)=CC21C (centres unmarked),5.37
2,COc1cc2c(cc1C(=O)NC(C)C)CCC1C(C)(C)C(=O)C(C#N)=CC21C (centres unmarked),8.23
3,COc1cc2c(cc1C(=O)Nc1ccc3[nH]ncc3c1)CCC1C(C)(C)C(=O)C(C#N)=CC21C (centres unmarked),> 20
4,COc1cc2c(cc1C(=O)Nc1ccc3ncsc3c1)CCC1C(C)(C)C(=O)C(C#N)=CC21C (centres unmarked),4.58
5,COc1cc2c(cc1C(=O)Nc1ccc3cc[nH]c3c1)CCC1C(C)(C)C(=O)C(C#N)=CC21C (centres unmarked),6.38
6,COC(=O)c1cc2c(cc1OC)C1(C)C=C(C#N)C(=O)C(C)(C)C1CC2 (centres unmarked),15.6
7,CCCNC(=O)c1cc2c(cc1OC)C1(C)C=C(C#N)C(=O)C(C)(C)C1CC2 (centres unmarked),7.71
8,COc1cc2c(cc1C(=O)O)CCC1C(C)(C)C(=O)C(C#N)=CC21C (centres unmarked),> 20
9,COc1cc2c(cc1C(=O)Nc1cccc3[nH]ccc13)CCC1C(C)(C)C(=O)C(C#N)=CC21C (centres unmarked),1.88
10,COc1cc2c(cc1C(=O)N1CCCCC1)CCC1C(C)(C)C(=O)C(C#N)=CC21C (centres unmarked),6.14
11,COc1cc2c(cc1C(=O)Nc1nc3c(C)cccc3s1)CCC1C(C)(C)C(=O)C(C#N)=CC21C (centres unmarked),8.33
12,COc1cc2c(cc1C(=O)Nc1ncc(C)s1)CCC1C(C)(C)C(=O)C(C#N)=CC21C (centres unmarked),8.73
13,COc1cc2c(cc1C(=O)Nc1ccc3cn[nH]c3c1)CCC1C(C)(C)C(=O)C(C#N)=CC21C (centres unmarked),6.79
14,COc1cc2c(cc1C(=O)Nc1nc3ccccc3s1)CCC1C(C)(C)C(=O)C(C#N)=CC21C (centres unmarked),1.45
15,COc1cc2c(cc1C(=O)Nc1cccc3ncccc13)CCC1C(C)(C)C(=O)C(C#N)=CC21C (centres unmarked),8.41
16,COc1cc2c(cc1C(=O)N1CCCC1)CCC1C(C)(C)C(=O)C(C#N)=CC21C (centres unmarked),8.96
17,COc1cc2c(cc1C(=O)Nc1ncc([N+](=O)[O-])s1)CCC1C(C)(C)C(=O)C(C#N)=CC21C (centres unmarked),1.01
